# Curated experimental data: melting point values

From the experimental data distributed with OPERA 2.9.

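OPERA's authors assembled the values from existing databases and did not measure them anew. A listed value is a point estimate from one report or more. How each value was measured is not recorded, so precision varies. Where a salt, mixture or single isomer is drawn, the source does not say that exactly this form was tested. Some entries may be limits or estimates that an upstream database listed as plain numbers.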

Melting points are in °C.
The databases behind each value are named after "via".

structure (SMILES),melting point (°C),via
FC(F)(Cl)C(F)(F)S(F)(F)(F)(F)F,-113,ChemicalBook
Cc1cc(C)n(-c2ccc(S(N)(=O)=O)cc2)n1,244,OCHEM
COc1c(OC)c(OC(=O)C(C)(C)C)c2ccccc2c1OC(=O)C(C)(C)C,179,OCHEM
S=C=Nc1ccc2ccccc2c1,60,OCHEM
Cc1c(Cl)cccc1NC(=O)CCl,72.5,OCHEM
CCCOc1ccc(C(=O)NN)cc1,89,OCHEM
NC(=O)c1cccc(O)c1,164,OCHEM
CCOC(=O)C(C(C)=O)C1CCS(=O)(=O)C1 (centres undefined),75.5,OCHEM
Nc1ccc(S(=O)(=O)N2CCCC2)cc1,165,OCHEM
Nc1nc(-c2ccc(C3CCCCC3)cc2)cs1,228,OCHEM
c1ccc2c(c1)NC1=NCCN12,200,OCHEM
O=c1nc(CO)[nH]c2ccccc12,222,OCHEM
COc1ccc(CCC(=O)O)cc1F,112,OCHEM
N#CCC(=O)Nc1cccc(Cl)c1,140,OCHEM
CCN(CC)c1ccc(N=Nc2c(C#N)cc([N+](=O)[O-])cc2[N+](=O)[O-])c(NC(C)=O)c1,204,eChemPortal
Cc1nn(C)c(F)c1C(=O)F,42.5,eChemPortal
CC(=O)OCC(CCn1cnc2c(Cl)nc(N)nc21)COC(C)=O,135,eChemPortal
O=C(O)CSCC(=O)N1CCOCC1,120,OCHEM
CC(=O)C(N=Nc1ccc(C)cc1[N+](=O)[O-])C(=O)Nc1ccccc1 (centres undefined),257,eChemPortal
Cc1cc(=O)n2c([nH]c3ccccc32)c1C#N,271,OCHEM
CC(=O)Nc1sc(C)c(C)c1C(=O)O,218,OCHEM
Cc1ccc(N2C(=O)CSC2=S)cc1,169,OCHEM
O=Cc1c(-c2ccccc2)n(-c2ccccc2)c2ccccc12,247,OCHEM
O=C1CCC(=O)N1C(O)C(Cl)Cc1ccc2ncccc2c1 (centres undefined),135,eChemPortal
CC(C)CCCCCCCOC(=O)CC(C(=O)OCCCCCCCC(C)C)S(=O)(=O)[O-].[Na+] (centres undefined),197,eChemPortal
CNS(=O)(=O)c1ccc(N)cc1,111,OCHEM
NC(=O)NCC(=O)O,175,OCHEM
Cc1cc(Br)cc2c1NC(=O)C2=O,299,OCHEM
CCCCOCCOS(=O)(=O)[O-].[Na+],126.4,eChemPortal
O=S(=O)(Cl)c1ccccc1-c1ccccc1,95,OCHEM
CCc1c(Cl)cc(NC(=O)C(CC)Oc2ccc(C(C)(C)CC)cc2C(C)(C)CC)c(O)c1Cl (centres undefined),145.4,eChemPortal
COCCn1cn[nH]c1=S,80,OCHEM
CC(C=O)Cc1ccc(C(C)(C)C)cc1 (centres undefined),-4.75,"OCHEM, eChemPortal"
CC1=C(/C=C/C(C)=C/C=C/C(C)=C/C=C/C=C(C)/C=C/C=C(C)/C=C/C=C(C)/C=C/C=C(\C)C(=O)O)C(C)(C)CCC1,211,OCHEM
CS(=O)(=O)OCC1COC(Cn2cncn2)(c2ccc(Cl)cc2Cl)O1.Cl (centres undefined),149.8,eChemPortal
CC1(C)c2ccccc2-c2ccc(N(c3ccc4c(c3)C3(c5ccccc5-c5ccccc53)c3ccccc3-4)c3ccccc3-c3ccccc3)cc21,255.8,eChemPortal
CCCCCCCCC(CCCCCC)C(=O)OCC(=O)Nc1ccc(-c2nn3nc(C(C)(C)C)c(Cl)c3[nH]2)cc1 (centres undefined),167,eChemPortal

Repeated from above, the 6 entries with the highest melting point:

structure (SMILES)	melting point (°C)	via
Cc1cc(Br)cc2c1NC(=O)C2=O	299	OCHEM
Cc1cc(=O)n2c([nH]c3ccccc32)c1C#N	271	OCHEM
CC(=O)C(N=Nc1ccc(C)cc1[N+](=O)[O-])C(=O)Nc1ccccc1 (centres undefined)	257	eChemPortal
CC1(C)c2ccccc2-c2ccc(N(c3ccc4c(c3)C3(c5ccccc5-c5ccccc53)c3ccccc3-4)c3ccccc3-c3ccccc3)cc21	255.8	eChemPortal
O=Cc1c(-c2ccccc2)n(-c2ccccc2)c2ccccc12	247	OCHEM
Cc1cc(C)n(-c2ccc(S(N)(=O)=O)cc2)n1	244	OCHEM